Laboratory results published in ChEMBL document CHEMBL3217618, “The use of phosphate bioisosteres in medicinal chemistry and chemical biology” (Medchemcomm, 2012).

The chains behind the UniProt entries cited, without tags or fusion partners.
UniProt Q9Y303, whole entry, looked up: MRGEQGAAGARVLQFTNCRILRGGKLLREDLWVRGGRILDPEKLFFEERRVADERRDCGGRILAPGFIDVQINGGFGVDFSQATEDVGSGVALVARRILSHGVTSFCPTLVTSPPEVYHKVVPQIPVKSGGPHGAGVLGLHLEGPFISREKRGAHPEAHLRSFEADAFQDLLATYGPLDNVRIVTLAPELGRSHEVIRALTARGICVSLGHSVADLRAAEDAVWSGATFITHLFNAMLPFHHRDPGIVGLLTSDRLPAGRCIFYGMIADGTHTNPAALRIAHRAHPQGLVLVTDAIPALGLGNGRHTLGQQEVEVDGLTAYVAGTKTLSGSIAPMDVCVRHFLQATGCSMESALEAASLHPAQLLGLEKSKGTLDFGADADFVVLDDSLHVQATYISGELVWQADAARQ

Assays:
[1] = Inhibition of DGD (unknown origin)
[2] = molecular target: N-acetylglucosamine-6-phosphate deacetylase (Homo sapiens, UniProt Q9Y303); assay: Inhibition of NagA (unknown origin)

| SMILES | Ki [1] [nM] | Ki [2] [nM] |
| --- | --- | --- |
| CP(=O)(O)N[C@H](CCC(=O)O)C(=O)O | 0.46 | – |
| CP(=O)(O)N[C@@H]1[C@@H](O)[C@H](O)[C@@H](COP(=O)(O)O)O[C@H]1O | – | 34 |
